Patent publication US20220218627A1 (priority 2019, published 2022)

System: Cluster headache patients
Experiment: Case studies (1-3) of individual Cluster headache patients
Details: IV, person

In the case of Magnesium sulfate, the “Case 3: success in shutting the cluster episode down” value was “only partial success”.
